# Measured values taken from PMC4251066, “Polyyne Hybrid Compounds from Notopterygium incisum with Peroxisome Proliferator-Activated Receptor Gamma Agonistic Effects” (Journal of Natural Products, 2014).
# Chains of the proteins cited; added tags and fusions are not shown. Residues count along the entry.
# UniProt P37231, 29-505: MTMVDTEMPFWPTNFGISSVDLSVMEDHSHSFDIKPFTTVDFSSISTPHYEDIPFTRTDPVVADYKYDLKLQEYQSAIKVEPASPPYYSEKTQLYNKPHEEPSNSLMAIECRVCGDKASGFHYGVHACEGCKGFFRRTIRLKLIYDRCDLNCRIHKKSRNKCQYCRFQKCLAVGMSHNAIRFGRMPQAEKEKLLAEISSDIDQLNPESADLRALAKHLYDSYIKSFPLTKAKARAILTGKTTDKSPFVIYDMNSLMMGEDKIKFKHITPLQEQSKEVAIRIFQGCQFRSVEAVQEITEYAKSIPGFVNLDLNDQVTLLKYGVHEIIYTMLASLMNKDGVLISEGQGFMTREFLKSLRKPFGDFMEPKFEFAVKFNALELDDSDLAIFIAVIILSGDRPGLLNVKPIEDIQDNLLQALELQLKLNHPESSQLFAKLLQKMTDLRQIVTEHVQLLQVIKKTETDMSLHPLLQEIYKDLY
# Target: human PPARγ (Homo sapiens, UniProt P37231)
# Assay: PPARγ luciferase reporter gene transactivation in HEK-293 cells
# Conditions: PPARγ-driven luciferase reporter assay, 18 h
smiles,measurement,value
"C=C[C@@H](O)C#CC#C[C@H](/C=C\CCCCCCC)OC(=O)/C=C/c1ccc(O)c(OC)c1 [compound 9, Notoincisol A]",maximal fold activation,2.8
